Source: PubChem BioAssay AID2675 (National Center for Advancing Translational Sciences (NCATS), 2010)
The entries are a selection whose mix differs from that of the whole data set. Results filed as inconclusive are left out. The source made the active and inactive calls. Calls come from the whole dose curve; as a rule, active = well fitted inhibition curve with a large enough effect in the signal ratio, with a control signal flat (not every such curve was filed as active); inconclusive = small, poorly fitted or top-dose-only effect, or effect the other way, or a change in a side signal; inactive = no such curve, though single readings can be large or run the other way; the % refers to the signal ratio.

Protein sequences, listed by entry. Tags and fused reporters are not part of them.
UniProt Q9NR56, whole entry: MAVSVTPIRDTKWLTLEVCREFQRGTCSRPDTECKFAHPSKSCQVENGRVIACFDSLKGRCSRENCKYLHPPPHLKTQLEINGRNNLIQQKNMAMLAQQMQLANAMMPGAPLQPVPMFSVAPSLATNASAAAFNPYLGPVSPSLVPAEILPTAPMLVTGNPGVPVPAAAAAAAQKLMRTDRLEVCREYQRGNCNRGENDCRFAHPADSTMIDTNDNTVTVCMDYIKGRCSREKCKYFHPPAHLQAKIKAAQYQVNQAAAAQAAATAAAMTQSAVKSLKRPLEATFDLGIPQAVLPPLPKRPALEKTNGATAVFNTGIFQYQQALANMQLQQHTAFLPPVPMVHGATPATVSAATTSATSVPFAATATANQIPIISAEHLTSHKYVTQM

Molecular target: Muscleblind-like protein 1 (Homo sapiens) (UniProt Q9NR56)
Test: qHTS Assay for Inhibitors of MBNL1-poly(CUG) RNA binding
Conditions: TR-FRET MBNL1-His/biotin-(CUG)12 binding, 665/545 ratio; at 57.5 µM (top of the series) unless noted
% is set by controls: 0 for no effect and ±100 for the full control effect.

Row | SMILES | activity change, negative = inhibition
1 | Cc1cc(C)cc(OP(C)(=O)Nc2ccc(C)cc2C)c1 (configuration not stated) | inactive: -13.5%
2 | COc1ccccc1OP(C)(=O)Nc1cccc(Br)c1 (configuration not stated) | inactive: -1.36%
3 | Cc1cc(C)cc(OP(C)(=O)Nc2ccccn2)c1 (configuration not stated) | inactive: 3.93%
4 | CP(=O)(Nc1cccc(Br)c1)Oc1ccccc1 (configuration not stated) | inactive: -9.75%
5 | Cc1ccc(C)c(NP(C)(=O)Oc2ccccc2)c1 (configuration not stated) | inactive: -2.27%
6 | CCCOc1ccc(NP(C)(=O)Oc2ccc(Cl)cc2)cc1 (configuration not stated) | inactive: -2.94%
7 | CP(=O)(Nc1ccc(SC(F)(F)F)cc1)Oc1ccccc1 (configuration not stated) | inactive: -1.56%
8 | COc1ccccc1OP(C)(=O)Nc1c(C)cccc1C (configuration not stated) | inactive: -5.29%
9 | CN1CCCCC1COC(=O)C1(O)c2ccccc2CCc2ccccc21 (configuration not stated) | inactive: -23.9%
10 | COc1ccccc1OP(C)(=O)Nc1ccccc1 (configuration not stated) | inactive: -2.43%
11 | CP(=O)(Nc1ccccc1Br)Oc1ccccc1 (configuration not stated) | inactive: 6.7%
12 | CP(=S)(Nn1cnnc1)Oc1ccccc1 (configuration not stated) | inactive: -7.74%
13 | Cc1cc(C)cc(OP(C)(=O)Nc2ccc(SC(F)(F)F)cc2)c1 (configuration not stated) | inactive: 5.73%
14 | CP(=O)(NC(=O)Nc1ccccc1)Oc1ccccc1 (configuration not stated) | inactive: -6.99%
15 | CP(=O)(Oc1ccccc1)OC(c1ccccc1)C(F)(F)F (configuration not stated) | inactive: 2.27%
16 | Cc1cccc(C)c1OP(C)(=O)Nc1ccc(SC(F)(F)F)cc1 (configuration not stated) | inactive: -4.5%
17 | CP(=O)(Nc1ccc(SC(F)(F)F)cc1)Oc1ccc(Cl)cc1 (configuration not stated) | inactive: 6.88%
18 | CP(=O)(Nc1ccccn1)Oc1ccc(Cl)cc1 (configuration not stated) | inactive: -5.98%
19 | CCOP(C)(=S)SCC(=O)NC(C)C(=O)O (configuration not stated) | inactive: -9.98%
20 | CCOC(=O)c1ccc(NP(C)(=O)Oc2ccc(OC)cc2)cc1 (configuration not stated) | inactive: -10.8%
21 | CCN(CC)CCCOC(=O)C(O)(c1ccccc1)c1ccccc1 | inactive: 1.46%

Row | SMILES | activity change, negative = inhibition
22 | Cc1cccc(C)c1OP(C)(N)=O (configuration not stated) | inactive: -4.73%
23 | COc1ccc(OP(C)(=O)Nc2cccc(F)c2)cc1 (configuration not stated) | inactive: 0.321%
24 | COc1ccccc1OP(C)(=O)Nc1cc(Cl)ccc1C (configuration not stated) | inactive: -1.92%
25 | Cc1cc(C)cc(OP(C)(N)=O)c1 (configuration not stated) | inactive: -8.47%
26 | CCOC(=O)c1ccc(NP(C)(=O)Oc2ccccc2)cc1 (configuration not stated) | inactive: -10.7%
27 | COc1ccccc1OP(C)(=O)Nc1ccc(C)cc1 (configuration not stated) | inactive: 8.5%
28 | COc1ccccc1OP(C)(=O)Nc1ccc(C)c(C)c1 (configuration not stated) | inactive: 23.8%
29 | Cc1cc(C)cc(OP(C)(=O)Nc2cccc(C(F)(F)F)c2)c1 (configuration not stated) | inactive: -1.57%
30 | CP(=O)(Nc1ccc(Cl)cc1Cl)Oc1ccccc1 (configuration not stated) | inactive: 3.54%
31 | CP(=O)(OCCOc1ccccc1)OCCOc1ccccc1 | inactive: -4.23%
32 | CN(C)CCOC(=O)C(O)(c1ccccc1)C1CCCC1 (configuration not stated) | inactive: -5.23%
33 | COc1ccc(OP(C)(=O)Nc2ccccn2)cc1 (configuration not stated) | inactive: -12.9%
34 | COc1ccccc1OP(C)(=O)Nc1ccc(Br)cc1 (configuration not stated) | inactive: 0.715%
35 | CCc1ccc(OP(C)(=O)O)cc1 | inactive: -8.41%
36 | COc1ccccc1OP(C)(=O)Nc1ccc(C)cc1C (configuration not stated) | inactive: -5.92%
37 | CP(=O)(Nc1ccccn1)Oc1ccccc1 (configuration not stated) | inactive: -3.89%
38 | Cc1c(NP(C)(=O)Oc2ccc(C(C)C)cc2)c(=O)n(-c2ccccc2)n1C (configuration not stated) | inactive: -22%
39 | CCc1ccc(OP(C)(=O)Nc2cccnc2)cc1 (configuration not stated) | inactive: -1.97%
40 | CP(=O)(Oc1ccccc1)N1CCOC1=O (configuration not stated) | inactive: -2.89%
41 | O=C(OCCCN1CCCC1)C(O)(c1ccccc1)C1CCCCC1 (configuration not stated) | inactive: -6.37%
42 | COc1ccccc1OP(C)(=O)Nc1c(C)n(C)n(-c2ccccc2)c1=O (configuration not stated) | inactive: -2.73%

Row | SMILES | activity change, negative = inhibition
43 | CCN(CC)CC(O)COC(=O)C(O)(c1ccccc1)C1CCCCC1 (configuration not stated) | inactive: -3.27%
44 | CP(=O)(Nc1ccc(Cl)cc1)Oc1ccc(F)cc1 (configuration not stated) | inactive: -11.2%
45 | COc1ccccc1OP(C)(=O)Nc1ccccc1Br (configuration not stated) | inactive: -6.28%
46 | CC(C)(C)c1ccc(OP(C)(=O)O)cc1 | inactive: 1.41%
47 | CP(=O)(OC12CC3CC(CC(C3)C1)C2)OC12CC3CC(CC(C3)C1)C2 | inactive: -1.1%
48 | CCOC(=O)c1ccc(NP(C)(=O)Oc2ccc(Cl)cc2)cc1 (configuration not stated) | inactive: -10.7%
49 | COc1ccc(NP(C)(=O)Oc2ccccc2OC)cc1 (configuration not stated) | inactive: -8.2%
50 | CN(C)CCOC(=O)C(O)(c1ccccc1)C1CCCCC1 (configuration not stated) | inactive: 4.09%
51 | COc1ccc(OP(C)(=O)Nc2cccc(Br)c2)cc1 (configuration not stated) | inactive: -3.55%
52 | CCOP(C)(=S)SCC(=O)NC(C)(CC)C(=O)O (configuration not stated) | inactive: -2.86%
53 | CP(=O)(Nc1ccc(SC(F)(F)F)cc1)Oc1ccc(F)cc1 (configuration not stated) | inactive: -3.66%
54 | Cc1ccccc1NP(C)(=O)Nc1ccccc1C | inactive: 3.22%
55 | CP(=O)(Nc1ccc2c(c1)OCCO2)Oc1ccccc1 (configuration not stated) | inactive: -13.3%
56 | CC(C)c1ccc(OP(C)(=O)Nc2ccc(SC(F)(F)F)cc2)cc1 (configuration not stated) | inactive: 1.73%
57 | CP(=O)(Nc1ccccc1F)Oc1ccccc1 (configuration not stated) | inactive: 0.332%
58 | COc1ccc(OP(C)(=O)Nc2ccc(SC(F)(F)F)cc2)cc1 (configuration not stated) | inactive: -12.7%
59 | CCOC(=O)c1ccc(NP(C)(=O)Oc2ccc(F)cc2)cc1 (configuration not stated) | inactive: -11.6% [at 11.5 µM]
60 | CCCCCOc1ccc(NP(C)(=O)Oc2ccc(Cl)cc2Cl)cc1 (configuration not stated) | inactive: -5.21%
61 | CP(=O)(Nc1ccccc1)Oc1ccc(F)cc1 (configuration not stated) | inactive: 1.07%
62 | CCN(CC)CCCOC(=O)C(O)(c1ccccc1)C1CCCCC1 (configuration not stated) | inactive: -3%
